Experiments:
K-562 = assay: NCI in vitro anti-cancer activity; details: Table 31, Leukemia
SK-MEL-5 = assay: NCI in vitro anti-cancer activity, Melanoma; assay type: cell-based; details: Table 31, Melanoma
DU-145 = assay: NCI in vitro anti-cancer activity, Prostate Cancer; details: Table 31, Prostate Cancer
PC-3 = assay: NCI in vitro anti-cancer activity, Prostate Cancer; details: Table 31, Prostate Cancer
NCI/ADR-RES = assay: NCI in vitro anti-cancer activity, breast cancer; details: Table 31, Breast Cancer, NCI/ADRRES
OVCAR-8 = assay: NCI in vitro anti-cancer activity, Ovarian Cancer; details: Table 31, Ovarian Cancer
OVCAR-4 = assay: NCI in vitro anti-cancer activity, Ovarian Cancer; details: Table 31, Ovarian Cancer
OVCAR-5 = assay: NCI in vitro anti-cancer activity, Ovarian Cancer; details: Table 31, Ovarian Cancer
OVCAR-3 = assay: NCI in vitro anti-cancer activity, Ovarian Cancer; details: Table 31, Ovarian Cancer
SK-OV-3 = assay: NCI in vitro anti-cancer activity, Ovarian Cancer; details: Table 31, Ovarian Cancer
IGROV1 = assay: NCI in vitro anti-cancer activity, Ovarian Cancer; details: Table 31, Ovarian Cancer
MCF7 = assay: NCI in vitro anti-cancer activity, Breast Cancer; details: Table 31, Breast Cancer
MDA-MB-231/ATCC = assay: NCI in vitro anti-cancer activity, Breast Cancer; details: Table 31, Breast Cancer
HS 578T = assay: NCI in vitro anti-cancer activity, Breast Cancer; details: Table 31, Breast Cancer
BT-549 = assay: NCI in vitro anti-cancer activity, Breast Cancer; details: Table 31, Breast Cancer
MDA-N = assay: NCI in vitro anti-cancer activity, Breast Cancer; details: Table 31, Breast Cancer
MDA-MB-435 = assay: NCI in vitro anti-cancer activity, Breast Cancer; details: Table 31, Breast Cancer
SNB-75 = assay: NCI in vitro anti-cancer activity, CNS Cancer; details: Table 31, CNS Cancer, SNB-75
U251 = assay: NCI in vitro anti-cancer activity, CNS Cancer; details: Table 31, CNS Cancer
SF-268 = assay: NCI in vitro anti-cancer activity, CNS Cancer; details: Table 31, CNS Cancer
SNB-19 = assay: NCI in vitro anti-cancer activity, CNS Cancer; details: Table 31, CNS Cancer
SF-295 = assay: NCI in vitro anti-cancer activity, CNS Cancer; details: Table 31, CNS Cancer
SF-539 = assay: NCI in vitro anti-cancer activity, CNS Cancer; details: Table 31, CNS Cancer
EKVX = assay: NCI in vitro anti-cancer activity, Non-Small Cell Lung Cancer; details: Table 31, Non-Small Cell Lung Cancer
NCI-H226 = assay: as above; details: Table 31, Non-Small Cell Lung Cancer
A549/ATCC = assay: as above; details: Table 31, Non-Small Cell Lung Cancer
HOP-92 = assay: as above; details: Table 31, Non-Small Cell Lung Cancer
NCI-H522 = assay: as above; details: Table 31, Non-Small Cell Lung Cancer
HOP-62 = assay: as above; details: Table 31, Non-Small Cell Lung Cancer
NCI-H23 = assay: as above; details: Table 31, Non-Small Cell Lung Cancer
RL DHFR = RL DHFR (Rattus norvegicus, UniProt Q920D2); assay: Inhibition of DHFR from rat liver; assay type: biochemical; details: @ 10 μM
SK-MEL-28 = assay: NCI in vitro anti-cancer activity, Melanoma; details: Table 31, Melanoma
LOX IMVI = assay: NCI in vitro anti-cancer activity, Melanoma; details: Table 31, Melanoma
UACC-62 = assay: NCI in vitro anti-cancer activity, Melanoma; details: Table 31, Melanoma
MALME-3M = assay: NCI in vitro anti-cancer activity, Melanoma; details: Table 31, Melanoma
M14 = assay: NCI in vitro anti-cancer activity, Melanoma; details: Table 31, Melanoma
UACC-257 = assay: NCI in vitro anti-cancer activity, Melanoma; details: Table 31, Melanoma
SK-MEL-2 = assay: NCI in vitro anti-cancer activity, Melanoma; details: Table 31, Melanoma
COLO 205 = assay: NCI in vitro anti-cancer activity, Colon Cancer; details: Table 31, Colon Cancer
HCC-2998 = assay: NCI in vitro anti-cancer activity, Colon Cancer; details: Table 31, Colon Cancer
HT29 = assay: NCI in vitro anti-cancer activity, Colon Cancer; details: Table 31, Colon Cancer
HCT-15 = assay: NCI in vitro anti-cancer activity, Colon Cancer; details: Table 31, Colon Cancer
SW-620 = assay: NCI in vitro anti-cancer activity, Colon Cancer; details: Table 31, Colon Cancer
KM12 = assay: NCI in vitro anti-cancer activity, Colon Cancer; details: Table 31, Colon Cancer
HCT-116 = assay: NCI in vitro anti-cancer activity, Colon Cancer; details: Table 31, Colon Cancer
RXF 393 = assay: NCI in vitro anti-cancer activity, Renal Cancer; details: Table 31, Renal Cancer, RXF 393
786-0 = assay: NCI in vitro anti-cancer activity, Renal Cancer; details: Table 31, Renal Cancer
ACHN = assay: NCI in vitro anti-cancer activity, Renal Cancer; details: Table 31, Renal Cancer
UO-31 = assay: NCI in vitro anti-cancer activity, Renal Cancer; details: Table 31, Renal Cancer
TK-10 = assay: NCI in vitro anti-cancer activity, Renal Cancer; details: Table 31, Renal Cancer
CAKI-1 = assay: NCI in vitro anti-cancer activity, Renal Cancer; details: Table 31, Renal Cancer
NCI-H460 = assay: NCI in vitro anti-cancer activity, Non-Small Cell Lung Cancer; assay type: cell-based; details: Table 31, Non-Small Cell Lung Cancer
SR = assay: NCI in vitro anti-cancer activity, Leukemia; details: Table 31, Leukemia
CCRF-CEM = assay: NCI in vitro anti-cancer activity, Leukemia; details: Table 31, Leukemia, CCRF-CEM
HL-60 (TB) = assay: NCI in vitro anti-cancer activity, Leukemia; details: Table 31, Leukemia
MOLT-4 = assay: NCI in vitro anti-cancer activity, Leukemia; details: Table 31, Leukemia
RPMI-8226 = assay: NCI in vitro anti-cancer activity, Leukemia; details: Table 31, Leukemia
[1] = biological target: CCRF-CEM human leukemia cell folylpolyglutamate synthetase (Homo sapiens, UniProt Q05932); assay: Substrate activity for CCRF-CEM folylpolyglutamate synthetase; assay type: biochemical; details: Table 21
FaDu = assay: Growth inhibition of FaDu human squamous carcinoma cell line; assay type: cell-based; details: read-out: Growth inhibition EC50, FaDu; Table 15; continuous (120 hours) exposure
[2] = biological target: E-coli thymidylate synthase (ecTS) (Escherichia coli, UniProt P0A884); assay: Inhibition of E. coli thymidylate synthase; assay type: biochemical; details: Table 13; at the concentration given
L. casei TS = L. casei TS (Lacticaseibacillus casei, UniProt P00469); assay: Inhibition of thymidylate synthase (TS), L. casei; assay type: biochemical, Lactobacillus casei; details: Table 13; at the concentration given

By UniProt entry, the sequences of proteins in these tests, tags left out. Residues count along the entry.
UniProt Q920D2, whole entry: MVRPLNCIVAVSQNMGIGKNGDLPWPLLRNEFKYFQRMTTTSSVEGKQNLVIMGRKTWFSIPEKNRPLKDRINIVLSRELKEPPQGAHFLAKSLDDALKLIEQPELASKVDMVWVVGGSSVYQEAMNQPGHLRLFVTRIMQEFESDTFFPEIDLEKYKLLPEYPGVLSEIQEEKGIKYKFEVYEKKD
UniProt Q05932, 43-587 limits assumed: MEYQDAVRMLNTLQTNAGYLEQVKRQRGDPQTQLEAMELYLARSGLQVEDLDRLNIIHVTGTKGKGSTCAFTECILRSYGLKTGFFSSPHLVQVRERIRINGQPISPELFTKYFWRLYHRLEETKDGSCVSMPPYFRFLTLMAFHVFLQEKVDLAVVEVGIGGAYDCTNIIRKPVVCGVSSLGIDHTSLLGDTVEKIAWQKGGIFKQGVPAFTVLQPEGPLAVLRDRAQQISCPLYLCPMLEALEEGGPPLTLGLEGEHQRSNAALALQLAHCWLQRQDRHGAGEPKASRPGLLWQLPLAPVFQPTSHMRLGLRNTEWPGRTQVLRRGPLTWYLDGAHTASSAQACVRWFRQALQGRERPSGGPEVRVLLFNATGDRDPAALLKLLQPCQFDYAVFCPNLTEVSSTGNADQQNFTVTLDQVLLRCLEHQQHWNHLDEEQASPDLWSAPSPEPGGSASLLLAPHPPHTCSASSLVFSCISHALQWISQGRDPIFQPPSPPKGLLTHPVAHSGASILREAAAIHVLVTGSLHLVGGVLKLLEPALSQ
UniProt P0A884, whole entry: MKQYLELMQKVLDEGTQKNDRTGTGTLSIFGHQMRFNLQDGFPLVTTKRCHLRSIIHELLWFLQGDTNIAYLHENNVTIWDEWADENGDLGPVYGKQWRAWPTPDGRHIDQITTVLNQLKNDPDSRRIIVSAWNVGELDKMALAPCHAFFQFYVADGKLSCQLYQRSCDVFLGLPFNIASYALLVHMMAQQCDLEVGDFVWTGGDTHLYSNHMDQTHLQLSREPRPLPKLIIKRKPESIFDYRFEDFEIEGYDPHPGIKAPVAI
UniProt P00469, whole entry: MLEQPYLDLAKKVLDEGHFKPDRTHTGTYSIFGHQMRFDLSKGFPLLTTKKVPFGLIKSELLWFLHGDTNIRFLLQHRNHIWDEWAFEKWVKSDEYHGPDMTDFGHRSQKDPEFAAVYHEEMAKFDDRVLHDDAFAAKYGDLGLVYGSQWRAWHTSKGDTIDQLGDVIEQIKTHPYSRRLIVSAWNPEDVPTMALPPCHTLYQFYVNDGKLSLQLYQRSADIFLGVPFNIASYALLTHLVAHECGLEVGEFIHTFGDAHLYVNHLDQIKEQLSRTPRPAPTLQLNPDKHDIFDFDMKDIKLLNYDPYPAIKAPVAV

Nc1nc(N)c2c(CNc3ccc4c(c3)Cc3ccccc3-4)coc2n1
GI50 (K-562): > 100 µM
GI50 (SK-MEL-5): > 100 µM
GI50 (DU-145): > 100 µM
GI50 (PC-3): > 100 µM
GI50 (NCI/ADR-RES): > 100 µM
GI50 (OVCAR-8): > 100 µM
GI50 (OVCAR-4): > 100 µM
GI50 (OVCAR-5): > 100 µM
GI50 (OVCAR-3): > 100 µM
GI50 (SK-OV-3): > 100 µM
GI50 (IGROV1): > 100 µM
GI50 (MCF7): > 100 µM
GI50 (MDA-MB-231/ATCC): > 100 µM
GI50 (HS 578T): > 100 µM
GI50 (BT-549): > 100 µM
GI50 (MDA-N): > 100 µM
GI50 (MDA-MB-435): > 100 µM
GI50 (SNB-75): > 100 µM
GI50 (U251): > 100 µM
GI50 (SF-268): > 100 µM
GI50 (SNB-19): > 100 µM
GI50 (SF-295): > 100 µM
GI50 (SF-539): > 100 µM
GI50 (EKVX): > 100 µM
GI50 (NCI-H226): > 100 µM
GI50 (A549/ATCC): > 100 µM
GI50 (HOP-92): > 100 µM
GI50 (NCI-H522): > 100 µM
GI50 (HOP-62): > 100 µM
GI50 (NCI-H23): > 100 µM
% inhibition RL DHFR (RL DHFR): 40% @ 10 μM
GI50 (SK-MEL-28): > 100 µM
GI50 (LOX IMVI): > 100 µM
GI50 (UACC-62): > 100 µM
GI50 (MALME-3M): > 100 µM
GI50 (M14): > 100 µM
GI50 (UACC-257): > 100 µM
GI50 (SK-MEL-2): > 100 µM
GI50 (COLO 205): > 100 µM
GI50 (HCC-2998): > 100 µM
GI50 (HT29): > 100 µM
GI50 (HCT-15): > 100 µM
GI50 (SW-620): > 100 µM
GI50 (KM12): > 100 µM
GI50 (HCT-116): > 100 µM
GI50 (RXF 393): > 100 µM
GI50 (786-0): > 100 µM
GI50 (ACHN): > 100 µM
GI50 (UO-31): > 100 µM
GI50 (TK-10): > 100 µM
GI50 (CAKI-1): > 100 µM
GI50 (NCI-H460): > 100 µM
GI50 (SR): > 100 µM
GI50 (CCRF-CEM): > 100 µM
GI50 (HL-60 (TB)): > 100 µM
GI50 (MOLT-4): > 100 µM
GI50 (RPMI-8226): > 100 µM

Nc1nc(N)c2c3c(oc2n1)CN(Cc1ccc(C(=O)N[C@@H](CCC(=O)O)C(=O)O)cc1)CC3
Vmax,rel [1]: 0.29 ± 0.05
Km ([1]; substrate for FPGS): 6.2 µM

Cc1[nH]c2nc(N)[nH]c(=O)c2c1Sc1ccccc1
EC50 (FaDu): > 10 µM
% in parentheses after the > value, E. Coli TS [2]: >30 (30%)
% in parentheses after the > value, L. Casei TS (L. casei TS): 0%
